From US6989390B2, “Amonafide salts” (priority 2002, dated 2006)

Test: Minimum amount of water/ethanol (1.5/4 v/v) required to dissolve the crude salt at boil (recrystallization)
Conditions: text summary of Table 3, hydroxylic media
Description: For comparative purposes, between and among organic salts prepared in this manner and for the purposes of subsequent Example 3, Table 3, crude reaction products were recrystalized from water/ethanol (1.5/4 v/v per gram of salt) using the minimum amount of solvent to effect dissolution at boil.
In the case of succinic acid, the organic acid was dispensed as a half-equivalent in order to generate mitonafide hemisuccinate. […] Crude product that was isolated from the hydrogenation reaction mixture was analyzed for purity by high pressure liquid chromatography (HPLC) according to the conditions described in Table 1 above. […] The recrystallized product was then analyzed for purity by HPLC.
The purities of the crude salts were assessed by HPLC according to the conditions described in Table 1 above. […] The resulting purified salts were again assessed for purity.
The hydrochloride and methanesulfonic acid salts of amonafide were prepared according to U.S. Pat. No. 5,420,137. […] The purity was assessed by HPLC using the conditions described in Table 1. […] The resulting purified salts were again assessed for purity.
The hydrochloride salt of amonafide was obtained by the method of Zee-Chang et al., U.S. Pat. No. 4,614,820. […] The purity was assessed by HPLC using the conditions described in Table 1. […] The resulting purified salts were again assessed for purity.

amonafide hemisuccinate [Amonafide hemi-succinate]
solubility compared with the HCl or methanesulfonic acid salt: significantly more soluble
